Columns and labels:
[1] = molecular target: T1, LmjIPCS (inositol phosphorylceramide synthase from L. major) (Leishmania major, UniProt E9AFX2)
T1 sequence (E9AFX2 1-338): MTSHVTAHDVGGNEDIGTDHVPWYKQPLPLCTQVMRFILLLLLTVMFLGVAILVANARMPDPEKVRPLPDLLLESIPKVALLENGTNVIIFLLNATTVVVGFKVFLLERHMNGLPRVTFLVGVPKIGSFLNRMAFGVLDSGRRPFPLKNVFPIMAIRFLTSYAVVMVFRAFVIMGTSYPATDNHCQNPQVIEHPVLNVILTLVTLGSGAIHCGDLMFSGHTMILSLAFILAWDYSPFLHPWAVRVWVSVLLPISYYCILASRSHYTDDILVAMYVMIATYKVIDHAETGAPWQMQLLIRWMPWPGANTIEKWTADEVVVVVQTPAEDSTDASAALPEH

[2] = molecular target: T1, LmjIPCS (inositol phosphorylceramide synthase from L. major); experiment: biochemical; conditions: read-out: 20mM inhibition LmjIPCS

In the case of COc1cc([C@@H]2c3cc4c(cc3[C@@H](O)[C@H]3COC(=O)[C@H]23)OCO4)cc(OC)c1O [4'-DEMETHYLEPIPODOPHYLLOTOXIN], the “20mM inhibition LmjIPCS” value [1] is reported as 7%.

In the case of COc1ccc(C[C@H]2NC[C@H](O)[C@H]2OC(C)=O)cc1 [ANISOMYCIN], the “20mM inhibition LmjIPCS” value [1] is reported as 5%.

O=C(O)CCCC[C@@H]1SC[C@@H]2NC(=O)N[C@@H]21 [BIOTIN] gave an inhibition at 20000 µM [2] of 5%.

O=C(O)C1CCCNC1 (stereo not shown) [NIPECOTIC ACID] was tested, and the inhibition at 20000 µM [2] was 17%.

In the case of O=[N+]([O-])c1cc([As](=O)(O)O)ccc1O [ROXARSONE], the “20mM inhibition LmjIPCS” value [1] is reported as 2.66%.

For CCN(CC)CCOc1ccc(C(=C(Cl)c2ccccc2)c2ccccc2)cc1 [clomiphene 4, clomiphene, reference compound], the LmjIPCS inhibition [1] was “confirmed”.

For CN[C@H]1CC[C@@H](c2ccc(Cl)c(Cl)c2)c2ccccc21 [sertraline 13, sertraline, reference compound], the LmjIPCS inhibition [1] was “confirmed”.
